Values of other authors as cited in patent US12174205B2, “Phosphatidylethanolamine-specific probes” (Northwestern University, priority 2014, dated 2024).

Conditions: at micromolar concentration: membrane distortion, PE translocation

For Duramycin, the cytotoxicity is listed as “exhibit cytotoxicity”.
